Assay results reported in paper PMC8549523.

Sequences of proteins named here, by UniProt entry; tags and fusion partners are left off. Residues count along the entry.
UniProt P15529, 35-392: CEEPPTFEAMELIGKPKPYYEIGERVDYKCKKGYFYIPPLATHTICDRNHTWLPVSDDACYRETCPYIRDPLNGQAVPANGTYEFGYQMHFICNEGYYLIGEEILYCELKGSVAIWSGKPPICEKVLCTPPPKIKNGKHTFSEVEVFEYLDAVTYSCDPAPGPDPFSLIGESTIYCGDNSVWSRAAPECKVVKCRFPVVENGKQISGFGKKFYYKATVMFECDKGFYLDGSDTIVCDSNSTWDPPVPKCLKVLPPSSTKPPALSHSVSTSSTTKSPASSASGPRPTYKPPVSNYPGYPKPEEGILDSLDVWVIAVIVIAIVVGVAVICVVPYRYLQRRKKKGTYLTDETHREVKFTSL

Target: CD46 (UniProt P15529)
Test: SPR; affinity and interaction half-life told as data not shown; CD46 immobilised, hexon as analyte

Q: Which interaction half-life does the source give for “hexon protein of HAdV-20-42-42 (natural protein)” here?
A: 3.12 min
